Test results reported in ChEMBL document CHEMBL4725342, “Design, synthesis and structure-activity relationship study of piperazinone-containing thieno[3,2-d]pyrimidine derivatives as new PI3Kδ inhibitors” (Bioorg Med Chem Lett, 2020).

Species on record: Homo sapiens
Test: Selectivity index, ratio of IC50 for PI3Kalpha (unknown origin) to IC50 for PI3Kdelta (unknown origin)

Row | Ratio IC50 | Compound
1 | 84 | CCc1nc2ccccc2n1-c1nc(N2CCOCC2)c2sc(CN3CCN(C4CCCC4)CC3=O)cc2n1
2 | 84 | CCc1nc2ccccc2n1-c1nc(N2CCOCC2)c2sc(CN3CCN(C(=O)C4CCC4)CC3=O)cc2n1
3 | 184 | C=CCN1CCN(Cc2cc3nc(-n4c(CC)nc5ccccc54)nc(N4CCOCC4)c3s2)C(=O)C1
4 | 119 | CCc1nc2ccccc2n1-c1nc(N2CCOCC2)c2sc(CN3CCN(C4CCCC4)C(=O)C3)cc2n1
5 | 76 | CCc1nc2ccccc2n1-c1nc(N2CCOCC2)c2sc(CN3CCN(C(=O)C4CC4)CC3=O)cc2n1
